Data: patent US9670203B2 (BeiGene, LTD., priority 2013, dated 2017)

By UniProt entry, the sequences of proteins in these tests, tags left out. Where a name states a change or a piece, a line headed by the entry shows the natural chain unless it says otherwise.
UniProt P15056, whole entry V600E: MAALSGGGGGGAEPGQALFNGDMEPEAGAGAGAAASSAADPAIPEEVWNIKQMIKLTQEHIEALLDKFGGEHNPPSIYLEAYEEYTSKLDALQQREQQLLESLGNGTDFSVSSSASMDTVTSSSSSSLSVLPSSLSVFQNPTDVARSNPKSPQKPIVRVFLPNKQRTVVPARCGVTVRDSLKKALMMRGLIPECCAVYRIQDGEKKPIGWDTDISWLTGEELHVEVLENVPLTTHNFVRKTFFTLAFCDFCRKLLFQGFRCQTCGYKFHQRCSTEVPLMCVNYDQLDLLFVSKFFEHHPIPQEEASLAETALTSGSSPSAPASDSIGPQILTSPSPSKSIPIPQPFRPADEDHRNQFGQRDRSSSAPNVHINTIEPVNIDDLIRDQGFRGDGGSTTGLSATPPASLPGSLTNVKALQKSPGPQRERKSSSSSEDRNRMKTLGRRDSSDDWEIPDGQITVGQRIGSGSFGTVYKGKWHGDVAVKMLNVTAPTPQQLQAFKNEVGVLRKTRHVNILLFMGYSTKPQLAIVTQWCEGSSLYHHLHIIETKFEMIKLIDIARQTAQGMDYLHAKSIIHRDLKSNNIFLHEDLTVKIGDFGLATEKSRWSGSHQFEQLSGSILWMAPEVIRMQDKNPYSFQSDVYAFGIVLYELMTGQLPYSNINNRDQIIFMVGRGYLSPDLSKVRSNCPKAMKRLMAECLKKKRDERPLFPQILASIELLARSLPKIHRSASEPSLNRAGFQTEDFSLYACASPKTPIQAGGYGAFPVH
UniProt P15056, whole entry: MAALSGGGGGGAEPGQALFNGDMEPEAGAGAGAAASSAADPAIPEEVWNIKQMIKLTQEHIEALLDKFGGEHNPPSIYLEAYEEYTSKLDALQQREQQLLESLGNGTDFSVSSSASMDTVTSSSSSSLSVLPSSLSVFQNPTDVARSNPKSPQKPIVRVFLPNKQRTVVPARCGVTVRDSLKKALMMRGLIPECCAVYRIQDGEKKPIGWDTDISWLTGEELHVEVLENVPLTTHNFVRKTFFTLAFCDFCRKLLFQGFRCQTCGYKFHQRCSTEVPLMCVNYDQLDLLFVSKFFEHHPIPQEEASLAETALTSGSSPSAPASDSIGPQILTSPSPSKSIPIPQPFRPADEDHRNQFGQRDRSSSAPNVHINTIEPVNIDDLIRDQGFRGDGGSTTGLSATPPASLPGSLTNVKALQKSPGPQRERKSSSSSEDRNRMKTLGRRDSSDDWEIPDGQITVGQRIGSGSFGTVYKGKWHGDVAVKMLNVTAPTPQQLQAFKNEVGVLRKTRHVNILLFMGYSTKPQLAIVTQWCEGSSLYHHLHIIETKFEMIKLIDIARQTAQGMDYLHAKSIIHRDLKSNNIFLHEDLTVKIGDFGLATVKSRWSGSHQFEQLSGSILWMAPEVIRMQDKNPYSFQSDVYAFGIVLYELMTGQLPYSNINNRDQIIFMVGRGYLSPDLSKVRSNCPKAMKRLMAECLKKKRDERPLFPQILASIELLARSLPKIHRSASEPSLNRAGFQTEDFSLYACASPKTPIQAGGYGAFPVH
UniProt P04049, whole entry Y340D/Y341D: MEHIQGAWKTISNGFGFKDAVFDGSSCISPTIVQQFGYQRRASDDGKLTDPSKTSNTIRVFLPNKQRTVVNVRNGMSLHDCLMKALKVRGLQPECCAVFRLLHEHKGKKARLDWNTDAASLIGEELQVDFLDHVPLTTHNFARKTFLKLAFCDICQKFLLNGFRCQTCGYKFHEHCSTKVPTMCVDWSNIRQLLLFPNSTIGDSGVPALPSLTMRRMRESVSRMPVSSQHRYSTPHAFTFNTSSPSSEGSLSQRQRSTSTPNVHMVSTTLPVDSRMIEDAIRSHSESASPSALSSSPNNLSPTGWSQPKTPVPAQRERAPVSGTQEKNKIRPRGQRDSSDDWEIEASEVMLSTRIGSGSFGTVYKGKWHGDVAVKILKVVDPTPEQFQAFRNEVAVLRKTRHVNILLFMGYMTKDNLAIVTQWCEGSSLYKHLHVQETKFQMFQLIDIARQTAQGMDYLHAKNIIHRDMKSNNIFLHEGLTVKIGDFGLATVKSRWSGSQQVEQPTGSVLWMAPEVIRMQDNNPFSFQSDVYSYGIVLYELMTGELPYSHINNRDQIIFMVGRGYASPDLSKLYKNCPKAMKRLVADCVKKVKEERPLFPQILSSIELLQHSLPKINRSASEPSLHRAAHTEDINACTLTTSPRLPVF

Tests used:
B-Raf (V600E) = B-Raf (V600E) (Homo sapiens (Human), UniProt P15056, V600E); test: Raf IC50 assay, time-resolved fluorescence energy transfer, B-Raf (V600E); assay type: biochemical; details: read-out: IC50 (nM) B_Raf^V600E; 0.1 mM ATP
A375 = test: Anti-proliferative activity EC50 assay (CellTiter-Glo) in A375; details: read-out: Cell Proliferation EC50 (nM) A375; 3-day exposure
wild type B-Raf = wild type B-Raf (Homo sapiens (Human), UniProt P15056); test: WT B-Raf IC50 assay, time-resolved fluorescence energy transfer; assay type: biochemical; details: read-out: IC50 (nM) B-Raf^WT Km ATP; Km ATP (2.9 μM ATP)
C-Raf (Y340D/Y341D) = C-Raf (Y340D/Y341D) (Homo sapiens (Human), UniProt P04049, Y340D/Y341D); test: Raf IC50 assay, time-resolved fluorescence energy transfer, C-Raf (Y340D/Y341D); assay type: biochemical; details: read-out: IC50 (nM) C-Raf; 0.1 mM ATP

Row | Compound | IC50 (B-Raf (V600E)) [nM] | EC50 (A375) [nM] | IC50 (wild type B-Raf) [nM] | IC50 (C-Raf (Y340D/Y341D)) [nM]
1 | O=C1CCc2c(Oc3ccc4c(c3)[C@H]3[C@H](NC(=O)NCc5ccccc5F)[C@H]3O4)ccnc2N1 | 0.71 | 840 | – | –
2 | Cc1ccc(NC(=O)N[C@@H]2[C@H]3Oc4ccc(Oc5ccnc6c5CCC(=O)N6)cc4[C@@H]23)cc1C(F)(F)F | 17 | – | 26 | 1.4
3 | O=C1CCc2c(Oc3ccc4c(c3)[C@H]3[C@H](NC(=O)NCc5ccccc5C(F)(F)F)[C@H]3O4)ccnc2N1 | 1.7 | 178 | 2.2 | 0.34
